{"sequences": {"note": "Sequences of proteins named here, by UniProt entry; tags and fusion partners are left off.", "UniProt O75762, whole entry, looked up": "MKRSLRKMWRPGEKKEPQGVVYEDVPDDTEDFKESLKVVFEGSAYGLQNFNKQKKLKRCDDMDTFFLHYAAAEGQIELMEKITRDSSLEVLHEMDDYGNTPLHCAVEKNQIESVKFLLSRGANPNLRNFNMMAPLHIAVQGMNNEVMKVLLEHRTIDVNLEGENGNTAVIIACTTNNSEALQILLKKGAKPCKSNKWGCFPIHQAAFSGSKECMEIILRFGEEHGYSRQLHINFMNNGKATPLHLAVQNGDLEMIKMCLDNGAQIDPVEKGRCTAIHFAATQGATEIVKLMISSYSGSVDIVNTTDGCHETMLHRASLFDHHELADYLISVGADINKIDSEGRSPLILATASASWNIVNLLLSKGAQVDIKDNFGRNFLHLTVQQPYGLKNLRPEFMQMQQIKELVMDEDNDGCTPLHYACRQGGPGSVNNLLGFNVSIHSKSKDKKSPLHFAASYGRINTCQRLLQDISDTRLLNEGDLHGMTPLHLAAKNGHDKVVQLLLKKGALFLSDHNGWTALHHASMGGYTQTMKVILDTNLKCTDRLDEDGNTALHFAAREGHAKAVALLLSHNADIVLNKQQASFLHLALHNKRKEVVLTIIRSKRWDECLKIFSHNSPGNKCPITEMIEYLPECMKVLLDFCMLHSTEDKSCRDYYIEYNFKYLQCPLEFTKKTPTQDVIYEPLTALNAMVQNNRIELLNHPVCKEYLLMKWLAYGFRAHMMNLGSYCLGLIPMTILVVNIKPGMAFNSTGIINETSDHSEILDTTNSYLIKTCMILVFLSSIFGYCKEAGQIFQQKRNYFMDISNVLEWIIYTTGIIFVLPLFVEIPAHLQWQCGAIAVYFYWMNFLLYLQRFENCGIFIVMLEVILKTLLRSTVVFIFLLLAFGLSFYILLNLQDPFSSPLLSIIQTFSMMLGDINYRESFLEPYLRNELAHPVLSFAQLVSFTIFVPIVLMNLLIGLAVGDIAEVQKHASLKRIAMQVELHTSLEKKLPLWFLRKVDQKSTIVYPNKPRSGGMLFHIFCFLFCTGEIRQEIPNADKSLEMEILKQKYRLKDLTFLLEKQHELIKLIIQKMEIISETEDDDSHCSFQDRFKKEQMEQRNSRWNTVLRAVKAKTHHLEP"}, "source": "patent US9951073B2", "about": "“Compounds and compositions for treating chemical warfare agent-induced injuries” (dated 2018)", "note": "pIC50: −log10 of the molar value."}
{"molecular_target": "TRPA1 channel (Homo sapiens, UniProt O75762)", "test": "Whole-cell patch clamp experiments, block of AITC-evoked current in HEK293/TREx TRPA1 cells", "conditions": "read-out: activity (IC50) as measured in the patch clamp assay, HEK293/TREx TRPA1 cells induced with tetracycline, block of current in the continued presence of AITC"}
{"smiles": "COc1ccc([C@H]2C[C@@H]2NC(=O)Cn2cnc3c2c(=O)n(C)c(=O)n3C)cc1", "pIC50": "5.00 to 6.00"}
{"smiles": "Cn1c(=O)c2c(ncn2CC(=O)NCCc2cccc(Cl)c2Cl)n(C)c1=O", "pIC50": "5.00 to 6.00"}
{"smiles": "Cc1ccc(CCNCCn2cnc3c2c(=O)n(C)c(=O)n3C)cc1", "pIC50": "5.00 to 6.00"}
{"smiles": "Cn1c(=O)c2c(ncn2CC(=O)N[C@H]2CN3CCC2CC3)n(C)c1=O", "pIC50": "< 5.00"}
{"smiles": "COc1cccc(CCNC(=O)Cn2cnc3c2c(=O)n(C)c(=O)n3C)c1OC", "pIC50": "5.00 to 6.00"}
{"smiles": "Cn1c(=O)c2c(nc(Cl)n2CC(=O)NCCSc2ccc(Cl)cc2)n(C)c1=O", "pIC50": "> 6.00"}
{"smiles": "Cn1c(=O)c2c(ncn2CC(=O)N[C@H](CO)Cc2ccccc2)n(C)c1=O", "pIC50": "5.00 to 6.00"}
{"smiles": "Cn1c(=O)c2c(ncn2CC(=O)N/N=C/c2ccc(C(F)(F)F)cc2)n(C)c1=O", "pIC50": "5.00 to 6.00"}
{"smiles": "Cc1ccc(CCOC(=O)Cn2cnc3c2c(=O)n(C)c(=O)n3C)cc1", "pIC50": "5.00 to 6.00"}
{"smiles": "Cc1ccc(CCN(CCn2cnc3c2c(=O)n(C)c(=O)n3C)S(C)(=O)=O)cc1", "pIC50": "5.00 to 6.00"}
{"smiles": "Cn1c(=O)c2c(ncn2CC(=O)NCCc2ccc(Cl)cc2Cl)n(C)c1=O", "pIC50": "5.00 to 6.00"}
{"smiles": "CC(=O)N(CCc1ccc(C)cc1)CCn1cnc2c1c(=O)n(C)c(=O)n2C", "pIC50": "> 6.00"}
{"smiles": "CCCn1c(=O)c2c(ncn2CC(=O)NCCc2ccc(C)cc2)n(C)c1=O", "pIC50": "< 5.00"}
{"smiles": "Cn1c(=O)c2c(ncn2CC(=O)NCCN2CCCCC2)n(C)c1=O", "pIC50": "< 5.00"}
{"smiles": "Cn1c(=O)c2c(ncn2CC(=O)Nc2nc3ccc(Br)cc3s2)n(C)c1=O", "pIC50": "> 6.00"}
{"smiles": "Cn1c(=O)c2c(ncn2CC(=O)N[C@@H](CO)Cc2ccccc2)n(C)c1=O", "pIC50": "5.00 to 6.00"}
{"smiles": "Cn1c(=O)c2c(ncn2CC(=O)NCCc2ccc(OCc3ccccc3)cc2)n(C)c1=O", "pIC50": "5.00 to 6.00"}
{"smiles": "Cn1c(=O)c2c(ncn2CC(=O)NCCc2ccc(C3CCCCC3)cc2)n(C)c1=O", "pIC50": "> 6.00"}
{"smiles": "CCCn1c(=O)n(C)c(=O)c2c1ncn2CC(=O)NCCc1ccccc1", "pIC50": "> 6.00"}
{"smiles": "CC(CNC(=O)Cn1cnc2c1c(=O)n(C)c(=O)n2C)c1ccccc1", "note": "(stereo not drawn)", "pIC50": "5.00 to 6.00"}
{"smiles": "Cn1c(=O)c2c(ncn2CC(=O)NCCN2CCOCC2)n(C)c1=O", "pIC50": "< 5.00"}
{"smiles": "Cn1c(=O)c2c(ncn2CC(=O)NCCc2ccccc2Br)n(C)c1=O", "pIC50": "5.00 to 6.00"}
{"smiles": "Cn1c(=O)c2c(ncn2CC(=O)NCC2CCCCC2)n(C)c1=O", "pIC50": "5.00 to 6.00"}
{"smiles": "COc1ccc(CCNS(=O)(=O)Cn2cnc3c2c(=O)n(C)c(=O)n3C)cc1", "pIC50": "< 5.00"}
{"smiles": "CCCCOc1ccc(CCNC(=O)Cn2cnc3c2c(=O)n(C)c(=O)n3C)cc1", "pIC50": "5.00 to 6.00"}
{"smiles": "Cn1c(=O)c2c(ncn2CC(=O)NCCc2cccc(F)c2)n(C)c1=O", "pIC50": "5.00 to 6.00"}
{"smiles": "Cc1ccc(CCN(C)CCn2cnc3c2c(=O)n(C)c(=O)n3C)cc1", "pIC50": "5.00 to 6.00"}
{"smiles": "COc1ccc(OC)c(CCNC(=O)Cn2cnc3c2c(=O)n(C)c(=O)n3C)c1", "pIC50": "5.00 to 6.00"}
{"smiles": "Cn1c(=O)c2c(ncn2CC(=O)NCCc2ccncc2)n(C)c1=O", "pIC50": "< 5.00"}
{"smiles": "COc1ccc(CCNC(=O)Cn2c(=O)[nH]c3c(=O)n(C)c(=O)n(C)c32)cc1", "pIC50": "< 5.00"}
{"smiles": "CCCn1c(=O)n(C)c(=O)c2c1ncn2CC(=O)NCCc1ccc(C)cc1", "pIC50": "5.00 to 6.00"}
{"smiles": "Cc1ccc(CCNC(=O)Cn2cnc3c2c(=O)n(C)c(=O)n3C)cc1C", "pIC50": "5.00 to 6.00"}
{"smiles": "CN1CCN(CCNC(=O)Cn2cnc3c2c(=O)n(C)c(=O)n3C)CC1", "pIC50": "5.00 to 6.00"}
{"smiles": "CCOc1ccc2nc(NC(=O)Cn3cnc4c3c(=O)n(C)c(=O)n4C)sc2c1", "pIC50": "> 6.00"}
{"smiles": "Cc1ccc(NC(=O)Cn2c(Cl)nc3c2c(=O)n(C)c(=O)n3C)cc1", "pIC50": "< 5.00"}
{"smiles": "COc1ccc(CS(=O)(=O)NC(=O)Cn2cnc3c2c(=O)n(C)c(=O)n3C)cc1", "pIC50": "5.00 to 6.00"}
{"smiles": "COc1ccc(CNC(=O)CCn2cnc3c2c(=O)n(C)c(=O)n3C)cc1", "pIC50": "< 5.00"}
{"smiles": "Cn1c(=O)c2c(ncn2CC(=O)NCCc2ccc3c(c2)OCO3)n(C)c1=O", "pIC50": "5.00 to 6.00"}
{"smiles": "COc1ccc([C@@H]2C[C@@H]2NC(=O)Cn2cnc3c2c(=O)n(C)c(=O)n3C)cc1", "pIC50": "5.00 to 6.00"}
{"smiles": "Cn1c(=O)c2c(ncn2CC(=O)NCCC2CCC(O)CC2)n(C)c1=O", "note": "(stereo not drawn)", "pIC50": "< 5.00"}
{"smiles": "Cn1c(=O)c2c(nc(Cl)n2CC(=O)Nc2ccc3c(c2)CCC3)n(C)c1=O", "pIC50": "> 6.00"}
{"smiles": "COc1ccc(CCNC(=O)Cn2c(=O)n(C)c3c2c(=O)n(C)c(=O)n3C)cc1", "pIC50": "5.00 to 6.00"}
{"smiles": "Cn1c(=O)c2c(ncn2CC(=O)NCCC23CC4CC(CC(C4)C2)C3)n(C)c1=O", "pIC50": "> 6.00"}
{"smiles": "COc1ccc(CCNC(=O)Cn2c(=O)[nH]c3c2c(=O)n(C)c(=O)n3C)cc1", "pIC50": "< 5.00"}
{"smiles": "Cn1c(=O)c2c(ncn2CC(=O)NCCc2ccc(-c3ccccc3)cc2)n(C)c1=O", "pIC50": "> 6.00"}
{"smiles": "Cn1c(=O)c2c(ncn2CC(=O)NCCc2c(Cl)cccc2Cl)n(C)c1=O", "pIC50": "5.00 to 6.00"}
{"smiles": "CCc1ccc(CCNC(=O)Cn2cnc3c2c(=O)n(C)c(=O)n3C)cc1", "pIC50": "5.00 to 6.00"}
{"smiles": "Cn1c(=O)c2c(ncn2CC(=O)NCCC2CCCCC2)n(C)c1=O", "pIC50": "< 5.00"}
{"smiles": "CCn1c(=O)c2c(ncn2CC(=O)NCCc2ccc(OC)cc2)n(CC)c1=O", "pIC50": "< 5.00"}
{"smiles": "Cc1ccc(F)cc1NC(=O)Cn1cnc2c1c(=O)n(C)c(=O)n2C", "pIC50": "5.00 to 6.00"}
{"smiles": "Cn1c(=O)c2c(ncn2CC(=O)NCCc2ccc(C(C)(C)C)cc2)n(C)c1=O", "pIC50": "5.00 to 6.00"}
